Article PMC11215778 (Journal of Medicinal Chemistry, 2024)

By UniProt entry, the sequences of proteins in these tests, tags left out.
UniProt P08913, whole entry: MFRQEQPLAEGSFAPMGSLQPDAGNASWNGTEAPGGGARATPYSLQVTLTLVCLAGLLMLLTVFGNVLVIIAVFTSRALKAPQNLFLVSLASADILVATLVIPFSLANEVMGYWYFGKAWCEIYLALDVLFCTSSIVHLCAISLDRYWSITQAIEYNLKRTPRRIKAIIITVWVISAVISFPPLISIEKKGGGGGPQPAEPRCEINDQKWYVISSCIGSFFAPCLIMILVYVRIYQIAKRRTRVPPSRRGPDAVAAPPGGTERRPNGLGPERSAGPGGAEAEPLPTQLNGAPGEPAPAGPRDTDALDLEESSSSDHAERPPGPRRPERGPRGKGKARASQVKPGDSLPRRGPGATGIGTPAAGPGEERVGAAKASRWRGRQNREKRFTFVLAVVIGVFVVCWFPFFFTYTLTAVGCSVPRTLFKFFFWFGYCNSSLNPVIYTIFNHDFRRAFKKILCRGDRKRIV

Target: ADRA2A (Homo sapiens, UniProt P08913)
Conditions: read-out: ADRA2A IC50

Row | SMILES | IC50 [nM]
1 | O=C(OCC1CNC1)[C@@H]1[C@H]2C[C@H]3c4[nH]c5ccccc5c4CCN3C[C@@H]2CC[C@@H]1O [Compound 4f, 17-α-Hydroxyyohimban-16-α-carboxylic Acid Azetidin-3-ylmethyl Ester] | 59
2 | O=C(OC1CNC1)[C@@H]1[C@H]2C[C@H]3c4[nH]c5ccccc5c4CCN3C[C@@H]2CC[C@@H]1O [Compound 4m, 17-α-Hydroxyyohimban-16-α-carboxylic Acid Azetidin-3-yl Ester] | 21
3 | CN1CC[C@H](OC(=O)[C@@H]2[C@H]3C[C@H]4c5[nH]c6ccccc6c5CCN4C[C@@H]3CC[C@@H]2O)C1 [Compound 4p, 17-α-Hydroxyyohimban-16-α-carboxylic Acid (S)-N-Methylpyrrolidin-3-yl Ester] | 23
4 | O=C(OC1CCCC1)[C@@H]1[C@H]2C[C@H]3c4[nH]c5ccccc5c4CCN3C[C@@H]2CC[C@@H]1O [Compound 3d, 17-α-Hydroxyyohimban-16-α-carboxylic Acid Cyclopentyl Ester] | 108
5 | CC(C)(C)OC(=O)[C@@H]1[C@H]2C[C@H]3c4[nH]c5ccccc5c4CCN3C[C@@H]2CC[C@@H]1O [Compound 3e, 17-α-Hydroxyyohimban-16-α-carboxylic Acid tert-Butyl Ester] | 239
6 | O=C(OC[C@H]1CCN1)[C@@H]1[C@H]2C[C@H]3c4[nH]c5ccccc5c4CCN3C[C@@H]2CC[C@@H]1O [Compound 4g, 17-α-Hydroxyyohimban-16-α-carboxylic Acid (R)-Azetidin-2-ylmethyl Ester] | 19
7 | O=C(OC[C@@H]1CCN1)[C@@H]1[C@H]2C[C@H]3c4[nH]c5ccccc5c4CCN3C[C@@H]2CC[C@@H]1O [Compound 4h, 17-α-Hydroxyyohimban-16-α-carboxylic acid (S)-Azetidin-2-ylmethyl Ester] | 79
8 | O=C(OC1CCCNC1)[C@@H]1[C@H]2C[C@H]3c4[nH]c5ccccc5c4CCN3C[C@@H]2CC[C@@H]1O (stereo partly drawn) [Compound 4e, 17-α-Hydroxyyohimban-16-α-carboxylic Acid Piperidine-3-yl Ester] | 57
9 | CNCCOC(=O)[C@@H]1[C@H]2C[C@H]3c4[nH]c5ccccc5c4CCN3C[C@@H]2CC[C@@H]1O [Compound 4c, 17-α-Hydroxyyohimban-16-α-carboxylic Acid 2-(Methylamino)ethyl Ester] | 37
10 | CC(C)OC(=O)[C@@H]1[C@H]2C[C@H]3c4[nH]c5ccccc5c4CCN3C[C@@H]2CC[C@@H]1O [Compound 3b, 17-α-Hydroxyyohimban-16-α-carboxylic Acid Isopropyl Ester] | 50
11 | O=C(O[C@@H]1CCNC1)[C@@H]1[C@H]2C[C@H]3c4[nH]c5ccccc5c4CCN3C[C@@H]2CC[C@@H]1O [Compound 4k, 17-α-Hydroxyyohimban-16-α-carboxylic Acid (R)-Pyrrolidin-3-yl Ester] | 38
12 | CC(C)CCOC(=O)[C@@H]1[C@H]2C[C@H]3c4[nH]c5ccccc5c4CCN3C[C@@H]2CC[C@@H]1O [Compound 3c, 17-α-Hydroxyyohimban-16-α-carboxylic Acid (3-Methylbutyl-1-yl) Ester] | 144
13 | CCOC(=O)[C@@H]1[C@H]2C[C@H]3c4[nH]c5ccccc5c4CCN3C[C@@H]2CC[C@@H]1O [Compound 3a, 17-α-Hydroxyyohimban-16-α-carboxylic Acid Ethyl Ester] | 31
